In US20030086902A1, “Cytokine-like peptide” (priority 1999, published 2003):

Molecular target: T1, soluble interferon receptor (Homo sapiens, UniProt P17181+P48551)
T1 construct: AR1 is designed to encode the extracellular region of amino acid residues 1 to 436; AR2 is designed to encode the extracellular region of amino acid residues 1 to 243; made in house; host or cells: COS-1 cells, transient co-transfection by DEAE-Dextran; purified from culture medium on Protein A Sepharose CL-4B
T1 sequence (P17181 28-436): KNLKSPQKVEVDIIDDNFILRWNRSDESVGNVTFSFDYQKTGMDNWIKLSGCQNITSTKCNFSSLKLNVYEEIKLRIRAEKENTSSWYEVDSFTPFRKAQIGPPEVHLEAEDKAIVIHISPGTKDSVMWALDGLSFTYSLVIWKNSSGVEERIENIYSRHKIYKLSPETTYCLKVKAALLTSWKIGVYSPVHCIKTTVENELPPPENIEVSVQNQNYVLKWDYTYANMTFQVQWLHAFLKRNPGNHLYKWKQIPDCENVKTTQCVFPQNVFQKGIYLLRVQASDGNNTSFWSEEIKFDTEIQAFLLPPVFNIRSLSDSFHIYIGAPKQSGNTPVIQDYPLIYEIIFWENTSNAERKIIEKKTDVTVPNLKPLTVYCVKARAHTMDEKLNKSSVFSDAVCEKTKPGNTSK
T1 sequence (P48551 27-243): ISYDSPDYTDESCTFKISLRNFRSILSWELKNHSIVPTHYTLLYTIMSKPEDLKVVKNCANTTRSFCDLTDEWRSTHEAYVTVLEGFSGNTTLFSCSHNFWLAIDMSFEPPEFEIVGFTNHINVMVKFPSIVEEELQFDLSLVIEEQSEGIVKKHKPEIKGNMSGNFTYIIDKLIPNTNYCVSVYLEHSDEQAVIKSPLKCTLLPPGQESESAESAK
Assay: solid-phase ligand binding assay using a soluble interferon receptor
Conditions: control human IgG1 instead of the receptor
Procedure: Total RNA was extracted from 2×10^6 human FL cells using Isogen (Nippon Gene Co. Ltd.). 1 μg of total RNA was isolated from genes existing in the extracellular region of interferon receptors AR1 and AR2 strands by PCR using the following primers.
AR1 is designed to encode the extracellular region of amino acid residues 1 to 436 (Uze, G. et al., Cell, 60, 225-234 (1990)) and AR2 is designed to encode the extracellular region of amino acid residues 1 to 243 (Domanski, P. et al., J. Biol. Chem., 270, 21606-21611 (1995)). The resultant PCR fragment was connected to EcoRI site and BamHI site of vector HuIgG1/SRα for expressing a fusion protein with a human IgG1Fc region. The constructed expression vector was subjected to co-transfection with COS-1 cell by the DEAE-Dextran method, thereby transiently expressing a protein. The soluble interferon receptor, produced in the culture solution, was purified using Protein A Sepharose CL-4B column (Amersham Pharmacia Biotech). The purified soluble interferon receptor (1 μg/ml) was allowed to react on a 96-well microplate (Maxisorp, Nunc) at 100 μl/well at 4° C. overnight to be immobilized on the microplate. […] Thus, the absorbance at 450 nm was measured. […] Further, when human interferon β was not added to this system, a signal was not detected. […]

Question: Which “binding to control human IgG1” value does the source give for “interferon β: interferon β (Feron, Toray Industries, Inc.), used as control” here?
Answer: did not bind
